Laboratory results taken from paper PMC9884089 (Journal of Medicinal Chemistry, 2023).
Like-named read-outs stand apart in the source and are kept apart here.

Tests used:
PARP10 = target: T1, PARP10 (Homo sapiens, UniProt Q53GL7); assay: biochemical; format: biochemical; parameters: made in house
T1 sequence (Q53GL7 1-1025): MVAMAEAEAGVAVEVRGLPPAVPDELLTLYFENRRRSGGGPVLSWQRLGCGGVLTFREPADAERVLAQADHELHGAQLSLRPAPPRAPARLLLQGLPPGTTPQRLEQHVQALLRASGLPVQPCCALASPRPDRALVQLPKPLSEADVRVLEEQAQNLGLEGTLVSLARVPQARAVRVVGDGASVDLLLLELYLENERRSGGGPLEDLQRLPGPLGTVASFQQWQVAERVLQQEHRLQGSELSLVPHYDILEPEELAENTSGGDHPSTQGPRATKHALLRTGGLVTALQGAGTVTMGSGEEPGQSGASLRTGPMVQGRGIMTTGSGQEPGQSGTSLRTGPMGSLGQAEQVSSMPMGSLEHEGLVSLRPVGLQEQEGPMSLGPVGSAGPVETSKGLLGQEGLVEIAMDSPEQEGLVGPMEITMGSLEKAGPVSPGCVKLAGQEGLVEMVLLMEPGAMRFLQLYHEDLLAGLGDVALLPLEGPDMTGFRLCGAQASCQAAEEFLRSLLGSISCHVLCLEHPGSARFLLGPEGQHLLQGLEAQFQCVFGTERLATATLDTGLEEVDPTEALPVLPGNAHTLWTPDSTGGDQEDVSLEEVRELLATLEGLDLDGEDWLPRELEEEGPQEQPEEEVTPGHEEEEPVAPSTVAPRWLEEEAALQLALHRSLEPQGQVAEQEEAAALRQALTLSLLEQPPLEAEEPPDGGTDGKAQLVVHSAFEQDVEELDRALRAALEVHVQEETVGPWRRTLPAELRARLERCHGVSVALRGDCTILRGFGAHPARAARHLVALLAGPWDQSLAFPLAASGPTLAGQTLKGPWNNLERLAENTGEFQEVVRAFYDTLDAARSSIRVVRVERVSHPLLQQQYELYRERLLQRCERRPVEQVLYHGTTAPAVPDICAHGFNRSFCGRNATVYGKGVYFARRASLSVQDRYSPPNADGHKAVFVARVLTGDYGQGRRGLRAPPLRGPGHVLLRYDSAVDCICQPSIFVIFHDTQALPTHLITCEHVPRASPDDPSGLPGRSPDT

PARP15 = target: T2, PARP15 (Homo sapiens, UniProt Q460N3); assay: biochemical; format: biochemical; parameters: made in house
T2 sequence (Q460N3 1-678): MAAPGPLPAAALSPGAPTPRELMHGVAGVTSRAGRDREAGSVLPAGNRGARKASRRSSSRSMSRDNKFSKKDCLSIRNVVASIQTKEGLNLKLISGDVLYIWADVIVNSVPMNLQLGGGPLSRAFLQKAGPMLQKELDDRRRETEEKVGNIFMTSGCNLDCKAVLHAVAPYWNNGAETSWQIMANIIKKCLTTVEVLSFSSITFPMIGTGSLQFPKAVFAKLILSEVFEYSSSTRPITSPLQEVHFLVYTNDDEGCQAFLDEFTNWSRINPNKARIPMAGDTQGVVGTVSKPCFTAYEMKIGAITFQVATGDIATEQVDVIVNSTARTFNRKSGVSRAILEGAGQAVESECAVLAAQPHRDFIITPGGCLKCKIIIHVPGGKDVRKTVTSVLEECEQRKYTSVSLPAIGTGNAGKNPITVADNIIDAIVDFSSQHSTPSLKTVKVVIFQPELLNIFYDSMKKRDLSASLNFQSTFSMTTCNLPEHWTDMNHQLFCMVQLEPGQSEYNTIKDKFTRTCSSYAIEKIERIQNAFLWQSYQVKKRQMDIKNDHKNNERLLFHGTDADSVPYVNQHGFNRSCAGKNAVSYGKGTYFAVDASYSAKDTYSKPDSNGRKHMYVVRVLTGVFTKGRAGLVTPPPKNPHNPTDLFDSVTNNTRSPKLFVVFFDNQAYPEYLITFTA

[1] = standard assay (Tables 1-3), * value limited by the protein concentration used, > less than 50% inhibition, ≫ no inhibition at the concentration
[2] = standard assay (Tables 1-3), * value limited by the protein concentration used, > less than 50% inhibition, ≫ no inhibition at the concentration, read-out: PARP15 IC50

Compound	IC50 (PARP10; [1])	IC50 (PARP15; [2])	also measured
Clc1ccc2c(c1)sc1nncn12 [Compound 7]	> 10 µM		
Oc1cccc2c1sc1nncn12 [Compound 17, [1,2,4]Triazolo[3,4-b][1,3]benzothiazol-8-ol]	> 10 µM		
CSc1nnc2sc3cc(C)ccc3n12 [Compound 22, 7-Methyl-3-(methylthio)[1,2,4]triazolo[3,4-b][1,3]benzothiazole]		> 10 µM	
Cc1ccc2c(c1)sc1nnc(SCc3ccc(Cl)cc3)n12 [Compound 23, 3-[(4-Chlorobenzyl)thio]-7-methyl[1,2,4]triazolo[3,4-b][1,3]benzothiazole]	> 10 µM	> 10 µM	
Cc1ccc2c(c1)sc1nnc(/N=C\c3ccc(Cl)cc3)n12 [Compound 24, N-[(1Z)-(4-Chlorophenyl)methylene]-7-methyl[1,2,4]triazolo[3,4-b][1,3]benzothiazol-3-amine]			IC50 (PARP15): 7.9 µM; IC50 (PARP10): > 10 µM
Cc1ccc2c(c1)sc1nnc(NCc3ccc(Cl)cc3)n12 [Compound 25, N-(4-Chlorobenzyl)-7-methyl[1,2,4]triazolo[3,4-b][1,3]benzothiazol-3-amine]		> 10 µM	
